# Values quoted from earlier work, collected in paper PMC7395068, “The evolution of strategies to minimise the risk of human drug-induced liver injury (DILI) in drug discovery and development” (Archives of Toxicology, 2020).
# Where two headings read alike, the source gives them in different places.
# Assays:
# [1] = cited from earlier work
# [2] = FDA drug labelling score, scale 1-8; ref Chen 2011; cited from earlier work
# [3] = cited from earlier work; remark: listed apart in the source
# [4] = system: isolated mouse liver mitochondria; settings: cited from earlier work
Substance,"DILI +VE (5-8), DILI -VE (-4) ([1]; in vivo)",DILI severity category ([1]; in vivo),In vivo DILI ([3]; in vivo),also measured
enfuvirtide,-VE,Ambiguous DILI-concern,–,–
medroxyprogesterone,-VE,Ambiguous DILI-concern,–,–
maraviroc,–,–,–,"DILI Score (FDA) (1-8) [2]: 3; DILI +VE (5-8), DILI -VE (-4) ([1]; binary in vivo human DILI call, ref Chen 2016): +VE"
plicamycin,–,–,–,In vivo DILI ([3]; […]): +VE
Hyperforin,–,–,-VE,in vitro data EC20<=2uM [4]: +VE
glycine,–,–,-VE,–
